Test results from patent publication US7704695B2, “Screening of compounds for BGT1 transporter activity” (XenoPort, Inc., priority 2005, dated 2010).

By UniProt entry, the sequences of proteins in these tests, tags left out.
UniProt P08183, whole entry: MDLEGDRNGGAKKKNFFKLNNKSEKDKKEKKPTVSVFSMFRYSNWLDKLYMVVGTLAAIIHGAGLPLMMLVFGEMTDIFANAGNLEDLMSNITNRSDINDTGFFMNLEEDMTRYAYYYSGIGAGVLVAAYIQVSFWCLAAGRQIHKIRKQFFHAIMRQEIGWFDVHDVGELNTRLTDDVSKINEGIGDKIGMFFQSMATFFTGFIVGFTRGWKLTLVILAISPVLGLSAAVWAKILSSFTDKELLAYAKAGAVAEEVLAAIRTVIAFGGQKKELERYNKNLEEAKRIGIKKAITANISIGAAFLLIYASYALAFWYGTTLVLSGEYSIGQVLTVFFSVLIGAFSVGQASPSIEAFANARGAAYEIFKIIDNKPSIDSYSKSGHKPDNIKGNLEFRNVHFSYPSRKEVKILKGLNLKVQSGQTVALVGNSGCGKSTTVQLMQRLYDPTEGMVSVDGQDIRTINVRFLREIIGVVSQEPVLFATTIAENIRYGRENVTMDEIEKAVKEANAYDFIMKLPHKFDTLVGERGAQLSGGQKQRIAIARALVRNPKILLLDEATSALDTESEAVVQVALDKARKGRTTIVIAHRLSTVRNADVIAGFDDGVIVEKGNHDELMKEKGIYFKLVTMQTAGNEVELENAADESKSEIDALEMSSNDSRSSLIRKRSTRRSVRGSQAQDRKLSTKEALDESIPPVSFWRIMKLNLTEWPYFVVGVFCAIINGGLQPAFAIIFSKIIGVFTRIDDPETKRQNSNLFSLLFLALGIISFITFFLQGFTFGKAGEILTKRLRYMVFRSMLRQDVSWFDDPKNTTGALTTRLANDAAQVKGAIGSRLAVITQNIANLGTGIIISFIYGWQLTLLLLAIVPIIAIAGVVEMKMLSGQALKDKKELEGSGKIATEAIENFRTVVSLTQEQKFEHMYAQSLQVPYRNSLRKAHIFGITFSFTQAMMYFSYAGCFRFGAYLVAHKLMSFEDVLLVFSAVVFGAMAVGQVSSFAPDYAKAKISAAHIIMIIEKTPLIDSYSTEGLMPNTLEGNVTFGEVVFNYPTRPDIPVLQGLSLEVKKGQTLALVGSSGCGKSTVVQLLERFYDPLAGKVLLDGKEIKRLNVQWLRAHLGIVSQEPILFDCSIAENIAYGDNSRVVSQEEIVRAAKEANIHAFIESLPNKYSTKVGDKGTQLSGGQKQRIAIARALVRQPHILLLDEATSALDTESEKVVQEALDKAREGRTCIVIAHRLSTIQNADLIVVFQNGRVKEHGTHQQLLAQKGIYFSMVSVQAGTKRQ

Target: PgP (Homo sapiens, UniProt P08183)
Assay: Transwell monolayer efflux assay in MDCK TREx-PgP cells
Details: 2.5 nM; absence and presence of 250 μM verapamil
Procedure: Transwell monolayer efflux assays can be performed by transfecting MDCK cells with the tetracycline-inducible TREx-PgP expression vector. The cells optionally can be transfected with a nucleic acid encoding the transporter of interest. The transfected cells are seeded on polycarbonate filter membranes in transwell dishes and grown for 3-5 days, yielding a polarized monolayer with tight junctions between cells.

For ^3H-vinblastine, the “PgP substrate status from apical to basolateral and basolateral to apical transport” value was “^3H-vinblastine is a substrate of PgP”.
